Experimental data as given in ChEMBL document CHEMBL5506068 (J Med Chem, 2024).

Species: Mus musculus
Assay: Selectivity ratio of Kd for mouse MOR to Kd for mouse KOR

For Cl.O=C(/C=C/c1ccco1)N[C@H]1CC[C@@]2(O)[C@H]3Cc4ccc(O)c5c4[C@@]2(CCN3CC2CC2)[C@H]1O5, the Ratio was 0.
